miR-21 reporter: raises the signal of a miR-21 reporter | Potency, µM (highest dose often 38.3 µM) | HeLa miR-21 FLuc reporter, luciferase, 48 h | 340,000 tested, under 10 active; active = well fitted rising curve with a large enough effect; inconclusive = small, poorly fitted or top-dose-only effect; inactive = no such curve, though single readings can be large or run the other way;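 further: miR-21 action dims this reporter so a rising signal means less miR-21 action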
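HeLa cells stably expressing CMV-driven firefly luciferase with a downstream miR-21 binding sequence, endogenously expressing miR-21, were treated with titrations (up to about 40uM final) for 48 hours at 37 degree Celsius. Luciferase luminescence was read after lysis.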
A549 tox-1: A549 cytotoxicity, counter-screen for Nrf2 inhibitors; A549 ARE-Fluc cells, CellTiter-Fluor viability, 18-24 h; Potency, µM (highest dose often 46 µM), actives largely listed as inhibitors; actives 0.16% (n = 390,000)
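A549 ARE-Fluc cells in 5% FBS OPTI-MEM, 5000 cells/well, rested 2 h then exposed to compounds in concentration-response for 18-24 h at 37 °C. Viability by CellTiter-Fluor fluorescence (Ex 405/Em 525) after 30 min; luciferase luminescence (BugLite, 15 min, RT) read afterwards.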
Nrf2 block: Nrf2 pathway inhibition; A549 ARE-Fluc reporter, luciferase luminescence, 18-24 h; Potency, µM (highest dose often 46 µM), usual class: inhibitors; actives 2.1% (n = 360,000); note: nearly all actives have a fitted effect of over 60% in size
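A549 ARE_Fluc cells, 5000/well, 5% FBS OPTI-MEM; compounds in dose-response, 18-24 h at 37 °C/5% CO2; CellTiter-Fluor viability read (Ex 405/Em 525), then BugLite luciferase luminescence = Nrf2 activity.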
Nrf2 activator: activates Nrf2 signaling | Potency, µM (doses to about 46.1 µM), hits mostly activators | actives 0.31% (n = 410,000) | AREc32 ARE-luciferase reporter (MCF7-derived line), luminescence, 24 h | AID 624171; note: nearly all actives have a fitted effect of over 65% in size
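Nrf2 activation is followed as ARE-luciferase induction in the AREc32 line after one day of compound treatment; luminescence is read with Steady-Glo.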
Mito fusion yeast: mitochondrial division inhibition or fusion activation; actives 0.23% (n = 320,000); S. cerevisiae fusion-defective mutant growth rescue, CellTiterGlo 48 h; Potency, µM (series often up to 46.1 µM), most hits filed as activators; note: nearly all actives have a fitted effect of over 45% in size
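Yeast fusion mutant, YPEG (non-fermentable carbon), compound, 48 h at 37C non-permissive; CellTiterGlo added, 10 min RT, luminescence read. Rescued growth = division inhibition.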
FLuc counter 3: blocks purified firefly luciferase in Nrf2 counterscreen; purified firefly luciferase, luminescence inhibition; actives 4% (n = 1,400); shares compounds with Nrf2 block; Potency, µM (series often up to 57.5 µM), hits mostly inhibitors; note: nearly all actives have a fitted effect of over 65% in size
A549 tox-2: toxic to A549 ARE-Fluc cells in Nrf2 counterscreen; actives 2% (n = 1,400); A549 ARE-Fluc cells, cytotoxicity counterscreen; Potency, µM (top dose mostly 46.1 µM), most hits filed as inhibitors; shares compounds with Nrf2 block;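 note: cells exposed to compounds for 18 to 24 hours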
ARE-Fluc inh: reduces Nrf2 ARE reporter signal in A549 cells; shares compounds with Nrf2 block; A549 ARE-firefly luciferase reporter, luminescence; Potency, µM (top dose mostly 46.1 µM), most hits filed as inhibitors; actives 74% (n = 1,400); AID 720524; note: nearly all actives have a fitted effect of over 65% in size
Each line names hits and unclear results; the compound was inactive in the other large screens (follow-up assays come after a bar, where shown). The list is not random: actives were taken first. Their share in the collection is about 2.3%. Unless noted, calls come from the whole dose curve; as a rule, active = well fitted curve in the direction sought with a large enough effect; inconclusive = small, poorly fitted or top-dose-only effect, or another doubt; inactive = no such curve, though single readings can be large; an effect the other way counts as inactive or inconclusive.

COC(=O)[C@]12OC[C@]34C([C@@H](O)[C@@H]1O)[C@]1(C)CC(=O)C(O)=C(C)[C@@H]1C[C@H]3OC(=O)[C@H](O)[C@@H]24 (stereo not given in full)	miR-21 reporter inconclusive, A549 tox-1 inconclusive, Nrf2 block 1.3µM | FLuc counter 3 inactive | A549 tox-2 inconclusive | ARE-Fluc inh 1.5µM
C[C@H]1C[C@@H](C)C(=O)[C@@H]([C@H](O)CC2CC(=O)NC(=O)C2)C1	miR-21 reporter inconclusive, A549 tox-1 inconclusive, Nrf2 block 0.41µM | FLuc counter 3 inactive | A549 tox-2 inactive | ARE-Fluc inh 13µM
COc1ccccc1C1Nc2ccccc2-n2c(-c3ccccc3)c3c(=O)n(C)c(=O)n(C)c3c21 (stereo not given)	Nrf2 block inconclusive (no result: Mito fusion yeast)
CC(C)(O)/C=C/C(=O)[C@](C)(O)C1[C@H](O)C[C@@]2(C)C3CC=C4C(C[C@H](O)[C@@H](O)C4(C)C)[C@]3(C)C(=O)C[C@]12C (stereo not given in full)	A549 tox-1 inconclusive, Nrf2 block 0.41µM (no result: miR-21 reporter, Mito fusion yeast) | FLuc counter 3 inactive | A549 tox-2 inconclusive | ARE-Fluc inh 1.3µM
N#CC(C#N)=Cc1ccc(O)c(O)c1	Mito fusion yeast inconclusive (no result: miR-21 reporter)
CC(C)(C)c1cc(C=C(C#N)C#N)cc(C(C)(C)C)c1O	A549 tox-1 inconclusive, Nrf2 block 0.65µM (no result: miR-21 reporter) | FLuc counter 3 inactive | A549 tox-2 inconclusive | ARE-Fluc inh 1.3µM
CCOc1ccc(-c2c(C)n(-c3ccc(OCC)cc3)c3[n+]2CCCCC3)cc1	miR-21 reporter inconclusive, Nrf2 block 2.6µM | FLuc counter 3 inactive | A549 tox-2 inconclusive | ARE-Fluc inh 1.2µM
C=CCNc1nnc(Sc2ncccc2[N+](=O)[O-])s1	Nrf2 activator inconclusive
Cc1ccc(C(=O)Oc2cc(N)n(S(=O)(=O)c3ccc(F)cc3)n2)cc1	Nrf2 block 1.8µM | FLuc counter 3 inactive | A549 tox-2 inactive | ARE-Fluc inh 1.6µM
COc1ccc(OCC(=O)N2CCN(Cc3cccc(OC)c3OC)CC2)cc1	none (no result: Mito fusion yeast)
CN(c1ccccc1)S(=O)(=O)c1cccc(C(=O)N2CCN(c3ccccn3)CC2)c1	Nrf2 block inconclusive
CC1OC(OC2C=C3CCC4C(CCC5(C)C(c6ccc(=O)oc6)CCC45O)C3(C)CC2)C(O)C(OC2OC(CO)C(O)C(O)C2O)C1O (stereo not given)	A549 tox-1 inconclusive, Nrf2 block 0.073µM (no result: miR-21 reporter, Mito fusion yeast) | FLuc counter 3 inactive | A549 tox-2 inconclusive | ARE-Fluc inh 0.0082µM
[O]=[Sb]([OH])([OH])[c]1ccccc1	none (no result: miR-21 reporter, Nrf2 activator, Mito fusion yeast)
COC(=O)c1sc(NC(=O)/C=C/c2ccc(OC)c(OC)c2)c(C(=O)OC)c1C	Nrf2 block inconclusive (no result: Mito fusion yeast)
C[C@H]1CCCC=CC2C[C@H](O)C[C@@H]2[C@H](O)C=CC(=O)O1 (stereo not given in full)	none (no result: miR-21 reporter, A549 tox-1, Nrf2 block, Nrf2 activator, Mito fusion yeast) | FLuc counter 3 inactive | A549 tox-2 inconclusive | ARE-Fluc inh 0.23µM
Cc1ccc(-c2cc(-c3ccc(C)cc3)[n+](-c3ccc(C(=O)[O-])cc3)c(-c3ccc(C)cc3)c2)cc1	none (no result: miR-21 reporter)
Cc1ccc(-c2cc(-c3ccc(C)cc3)[n+](C)o2)cc1	miR-21 reporter inconclusive, A549 tox-1 inconclusive, Nrf2 block 5.2µM | FLuc counter 3 inactive | A549 tox-2 inactive | ARE-Fluc inh 3.7µM
CC(N)c1cccc(Cl)c1Cl (stereo not given)	none (no result: miR-21 reporter, A549 tox-1, Nrf2 block, Nrf2 activator)
CCN(CC)C1=NC(=[N+](CC)CC)c2ccccc21	A549 tox-1 inconclusive, Nrf2 block 2.1µM | FLuc counter 3 inactive | A549 tox-2 inactive | ARE-Fluc inh 4.6µM
COc1ccc(CNC(=O)CSCc2cnn(-c3ccccc3)c2-n2cccc2)cc1OC	miR-21 reporter inconclusive, Nrf2 block 9.2µM (no result: Mito fusion yeast) | FLuc counter 3 inactive | A549 tox-2 inactive | ARE-Fluc inh 8.2µM
c1ccc(/N=C2\N=C(Nc3ccccn3)c3ccccc32)nc1	Nrf2 block inconclusive (no result: miR-21 reporter, Mito fusion yeast)
Nc1nc(F)nc2c1ncn2[C@@H]1O[C@H](CO)[C@@H](O)[C@@H]1O	Nrf2 block 5.8µM | FLuc counter 3 inactive | A549 tox-2 inactive | ARE-Fluc inh 16µM
CC(=O)c1ccc(N2CCN(S(=O)(=O)c3cc(-c4onc(C)c4C)ccc3C)CC2)cc1	Nrf2 block 9.2µM (no result: Mito fusion yeast) | FLuc counter 3 inactive | A549 tox-2 inactive | ARE-Fluc inh 6.5µM
COc1cc(OC)cc(C(=O)Nc2nc(-c3nnn(-c4ccc(C)cc4)c3C)ns2)c1	Nrf2 block inconclusive, Nrf2 activator inconclusive (no result: Mito fusion yeast)
CCCCNS(=O)(=O)c1ccc(OCC(=O)N2CCN(Cc3ccc4c(c3)OCO4)CC2)cc1	A549 tox-1 inconclusive, Nrf2 block 4.6µM | FLuc counter 3 inactive | A549 tox-2 inactive | ARE-Fluc inh inconclusive
O=C(COc1ccc(S(=O)(=O)N2CCOCC2)cc1)N1CCN(Cc2ccc3c(c2)OCO3)CC1	Nrf2 block inconclusive
NC(=NCCC[C@H](N)C(=O)O)N[N+](=O)[O-]	none (no result: miR-21 reporter, A549 tox-1, Nrf2 block, Nrf2 activator)
COc1cc(C[C@@H](C)N)c(OC)cc1I	Nrf2 block inconclusive | FLuc counter 3 inactive | A549 tox-2 inactive | ARE-Fluc inh inactive
CC(N)Cc1c[nH]c2c1ccc1ccccc12 (stereo not given)	none
O=C1NC2C(O)C(O)C(O)C(O)C2c2cc3c(c(O)c21)OCO3 (stereo not given)	A549 tox-1 1.2µM, Nrf2 block 0.92µM (no result: miR-21 reporter, Mito fusion yeast) | FLuc counter 3 inactive | A549 tox-2 inconclusive | ARE-Fluc inh 1.3µM
COc1cc(C2c3cc4c(c(O)c3CC3COC(=O)C32)OCO4)cc(OC)c1O (stereo not given)	Nrf2 block inconclusive (no result: miR-21 reporter, Nrf2 activator, Mito fusion yeast)
O=C1NC2C(=CC(O)C(O)C2O)c2cc3c(c(O)c21)OCO3 (stereo not given)	A549 tox-1 inconclusive, Nrf2 block 0.26µM (not shown: miR-21 reporter, Mito fusion yeast) | FLuc counter 3 inactive | A549 tox-2 inconclusive
CC(C)N1CC=C(c2c[nH]c3ccccc23)CC1	A549 tox-1 inconclusive, Nrf2 block 1.6µM | FLuc counter 3 inactive | A549 tox-2 inactive
Cc1ccc(-n2nc3c(N4CCC(C(=O)NCc5ccccc5Cl)CC4)nnc(C)c3c2C)cc1	Nrf2 block inconclusive (no result: Mito fusion yeast)
CC(=O)c1cccc(NC(=O)c2cc3c(s2)-c2c(C)cccc2OC3)c1	Nrf2 block 7.3µM (no result: Mito fusion yeast) | FLuc counter 3 inactive | A549 tox-2 inactive | ARE-Fluc inh 6.5µM
Nc1c(C(=O)Nc2ccc(Br)cc2F)sc2nc3c(cc12)N1CCC3CC1	none (no result: Mito fusion yeast)
